From BindingDB's records for doi:10.1021/jm950759z (Cooperation Pharmaceutique Fran?aise, 1997)

Assay: Inhibition of [3H]spiperone binding to Dopamine receptor D3 in bovine cortex

Which Ki does the source give for `CCCN(CCC)C1CCc2cccc(O)c2C1` (stereo unspecified) here?
Its Ki is 14.6 µM.
